Target: TNF (Homo sapiens, UniProt P01375)
Assay: TNF cytotoxicity on WISH cells with cycloheximide, neutral red readout
Format: cell-based
Conditions: TNF preincubated 30 minutes with receptor, heparin/Clexane added just before application to cells (columns 7 vs 11)
Protocol: To test the effectiveness of inhibition of activity of TNF (see Examples 1 and 2), WISH cells were seeded at a concentration of 30,000 cells per well in 100 μl medium. Sixteen hours later, when the cells had reached about 90% confluence, TNF, receptors, heparin, or Clexane® were added to the wells. The final concentrations added to the respective wells are as follows:
TBPI (p55 TNF-receptor), 5 ng/ml
TBPII (p75 TNF-receptor), 10 ng/ml
The different combinations were mixed in an Eppendorf tube reaching a final volume of 300 μl. Then, 50 μl were added to the respective well. If incubation was required, it was conducted in the Eppendorf tube for 30 minutes at 37° C., in a mixture or separately. After each of the different combinations were added, 50 μl cycloheximide was added to each well. […] The dye was extracted from surviving cells with a Sorensen's solution and the results were read in an ELISA reader.
WISH cells were seeded at a concentration of 30,000 cells/well in 100 μl medium. […] Following the one hour incubation, the dye was extracted with a Sorensen's solution, and the results were read in an ELISA reader. […]
After addition of the different combinations, cyclohexamide was added to each well (50 μl) for a final concentration of 25 μg/ml. […] Following the one hour incubation, the dye was extracted with a Sorensen's solution and the results were read in an ELISA reader.

Chains of the proteins cited; added tags and fusions are not shown. Residues count along the entry.
UniProt P01375, 77-233 limits assumed: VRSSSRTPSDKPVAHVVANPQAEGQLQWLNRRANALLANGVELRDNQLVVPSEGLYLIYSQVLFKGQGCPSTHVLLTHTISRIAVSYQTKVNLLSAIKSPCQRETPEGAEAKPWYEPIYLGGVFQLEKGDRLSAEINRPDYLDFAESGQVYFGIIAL

p55 sTNF-R: soluble p55 TNF-receptor, extracellular part of the p55 TNF-R
TNF inhibition by soluble receptor following heparin/Clexane addition: 15%
